In patent EP1383793B1 (priority 2000, dated 2001):
Read-outs that look alike come from different tables or passages of the source.

By UniProt entry, the sequences of proteins in these tests, tags left out. Residues count along the entry.
UniProt P06213, 28-758 limits assumed: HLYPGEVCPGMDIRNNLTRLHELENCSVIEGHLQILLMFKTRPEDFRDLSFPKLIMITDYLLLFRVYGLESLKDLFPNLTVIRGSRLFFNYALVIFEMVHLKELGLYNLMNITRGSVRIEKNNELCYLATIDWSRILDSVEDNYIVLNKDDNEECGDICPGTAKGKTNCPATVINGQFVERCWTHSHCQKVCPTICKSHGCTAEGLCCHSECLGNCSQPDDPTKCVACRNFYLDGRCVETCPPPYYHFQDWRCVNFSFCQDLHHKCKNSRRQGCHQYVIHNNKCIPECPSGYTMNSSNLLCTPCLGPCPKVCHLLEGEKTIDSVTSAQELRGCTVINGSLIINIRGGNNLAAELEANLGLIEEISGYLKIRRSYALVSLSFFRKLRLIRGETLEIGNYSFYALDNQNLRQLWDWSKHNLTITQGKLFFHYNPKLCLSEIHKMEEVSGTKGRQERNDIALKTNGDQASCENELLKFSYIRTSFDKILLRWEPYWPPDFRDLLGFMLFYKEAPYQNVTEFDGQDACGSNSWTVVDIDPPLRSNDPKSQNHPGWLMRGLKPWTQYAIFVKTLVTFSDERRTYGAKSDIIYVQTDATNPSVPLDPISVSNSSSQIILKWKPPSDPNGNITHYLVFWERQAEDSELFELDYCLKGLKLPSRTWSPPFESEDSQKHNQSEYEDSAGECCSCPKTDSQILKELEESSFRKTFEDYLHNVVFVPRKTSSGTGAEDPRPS
UniProt P06213, 763-1382 limits assumed: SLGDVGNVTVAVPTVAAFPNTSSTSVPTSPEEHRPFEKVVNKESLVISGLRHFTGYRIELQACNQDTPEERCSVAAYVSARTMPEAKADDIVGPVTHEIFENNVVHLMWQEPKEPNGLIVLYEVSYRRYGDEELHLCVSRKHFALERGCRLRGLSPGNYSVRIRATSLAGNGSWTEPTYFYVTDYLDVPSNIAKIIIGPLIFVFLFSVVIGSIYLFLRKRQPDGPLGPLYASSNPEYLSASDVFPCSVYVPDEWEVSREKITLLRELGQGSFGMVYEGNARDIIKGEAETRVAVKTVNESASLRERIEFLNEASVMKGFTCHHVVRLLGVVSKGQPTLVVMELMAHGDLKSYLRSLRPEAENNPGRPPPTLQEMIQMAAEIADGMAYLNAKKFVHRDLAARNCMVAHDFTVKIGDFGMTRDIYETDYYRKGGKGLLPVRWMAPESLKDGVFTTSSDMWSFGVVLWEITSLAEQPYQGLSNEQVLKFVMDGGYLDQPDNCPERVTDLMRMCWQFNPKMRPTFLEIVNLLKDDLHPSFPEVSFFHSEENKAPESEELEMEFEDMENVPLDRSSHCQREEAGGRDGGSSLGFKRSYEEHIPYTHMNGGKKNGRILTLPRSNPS
UniProt P08069, 741-1367 limits assumed: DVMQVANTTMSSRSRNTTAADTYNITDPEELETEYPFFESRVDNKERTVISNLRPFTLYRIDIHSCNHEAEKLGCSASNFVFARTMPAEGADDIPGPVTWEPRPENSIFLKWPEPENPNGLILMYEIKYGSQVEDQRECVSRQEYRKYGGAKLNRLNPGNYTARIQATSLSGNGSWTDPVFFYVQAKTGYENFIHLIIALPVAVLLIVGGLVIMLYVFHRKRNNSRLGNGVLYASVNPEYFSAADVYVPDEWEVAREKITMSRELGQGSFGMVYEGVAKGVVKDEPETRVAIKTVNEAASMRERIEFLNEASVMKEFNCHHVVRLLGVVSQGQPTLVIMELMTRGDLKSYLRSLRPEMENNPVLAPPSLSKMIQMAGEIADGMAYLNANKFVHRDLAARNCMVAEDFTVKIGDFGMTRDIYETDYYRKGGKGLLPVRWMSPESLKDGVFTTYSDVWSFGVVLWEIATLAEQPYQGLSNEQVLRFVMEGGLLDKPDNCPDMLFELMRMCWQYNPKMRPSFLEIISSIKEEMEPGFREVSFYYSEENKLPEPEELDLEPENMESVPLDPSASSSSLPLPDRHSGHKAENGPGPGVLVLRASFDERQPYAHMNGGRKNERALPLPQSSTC
UniProt P08069, 31-736 limits assumed: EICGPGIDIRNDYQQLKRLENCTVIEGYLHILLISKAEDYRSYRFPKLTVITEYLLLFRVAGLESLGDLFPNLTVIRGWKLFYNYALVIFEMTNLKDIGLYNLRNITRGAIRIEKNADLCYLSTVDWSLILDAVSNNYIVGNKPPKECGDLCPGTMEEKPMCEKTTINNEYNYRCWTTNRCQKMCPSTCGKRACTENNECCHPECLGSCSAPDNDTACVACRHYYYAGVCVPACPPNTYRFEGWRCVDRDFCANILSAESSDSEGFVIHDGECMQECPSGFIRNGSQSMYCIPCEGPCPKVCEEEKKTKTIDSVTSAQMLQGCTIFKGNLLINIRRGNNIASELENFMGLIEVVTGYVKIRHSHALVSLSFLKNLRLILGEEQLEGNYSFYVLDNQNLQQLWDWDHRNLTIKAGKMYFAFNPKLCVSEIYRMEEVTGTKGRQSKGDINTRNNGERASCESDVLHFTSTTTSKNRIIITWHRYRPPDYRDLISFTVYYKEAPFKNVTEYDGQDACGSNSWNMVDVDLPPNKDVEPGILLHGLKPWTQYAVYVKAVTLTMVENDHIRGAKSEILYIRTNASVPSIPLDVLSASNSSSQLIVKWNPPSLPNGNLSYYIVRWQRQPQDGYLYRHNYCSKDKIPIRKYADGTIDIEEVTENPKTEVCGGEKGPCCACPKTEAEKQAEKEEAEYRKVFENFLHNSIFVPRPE

Key:
[1] = biological target: T1, human insulin receptor (HIR) (Homo sapiens, UniProt P06213); test: 125I-insulin competition binding assay on solubilised purified receptor
T1 construct: made in house

[2] = biological target: human IGF-1 receptor (HIGF-1R) (Homo sapiens, UniProt P08069); test: 125I-IGF-1 competition binding assay on solubilised purified receptor

Kd [2]	Compound	further results
–	CSCC[C@H](NC(=O)[C@H](CC(C)C)NC(=O)[C@H](CCCNC(=N)N)NC(=O)[C@H](CC(=O)O)NC(=O)[C@H](CC(C)C)NC(=O)[C@H](C)NC(=O)[C@H](CC(=O)O)NC(=O)[C@@H](N)CC(C)C)C(=O)N[C@@H](CCCNC(=N)N)C(=O)N[C@@H](Cc1ccc(O)cc1)C(=O)N[C@@H](Cc1ccccc1)C(=O)N[C@@H](CCC(=O)O)C(=O)N[C@@H](CCC(=O)O)C(=O)N[C@@H](CCCNC(=N)N)C(=O)N1CCC[C@H]1C(=O)N[C@@H](CO)C(=O)N[C@@H](CC(C)C)C(N)=O [Clone S173]	Kd ([1]; read-out: HIR affinity): 1.2 µM
3.2 µM	CSCC[C@H](NC(=O)[C@H](CCCNC(=N)N)NC(=O)[C@H](CCC(=O)O)NC(=O)[C@@H]1CCCN1C(=O)[C@H](CC(=O)O)NC(=O)[C@@H](N)CCCCN)C(=O)N[C@@H](CCC(N)=O)C(=O)N[C@@H](CO)C(=O)N[C@@H](CC(=O)O)C(=O)N[C@H](C(=O)NCC(=O)N[C@@H](Cc1ccccc1)C(=O)N[C@@H](Cc1ccc(O)cc1)C(=O)N[C@@H](CCC(=O)O)C(=O)N[C@@H](Cc1c[nH]c2ccccc12)C(=O)N[C@@H](Cc1ccccc1)C(=O)N[C@@H](CCCNC(=N)N)C(=O)N[C@@H](C)C(=O)N[C@@H](C)C(=O)N[C@H](C(=O)NCC(=O)N[C@@H](CCCCN)C(=O)N[C@@H](CCCCNC(=O)CCCC[C@@H]1SC[C@@H]2NC(=O)N[C@@H]21)C(N)=O)C(C)C)C(C)C [Clone D111]	–
–	CC[C@H](C)[C@H](NC(=O)[C@@H](N)CCCCN)C(=O)NCC(=O)NCC(=O)N[C@@H](CCC(N)=O)C(=O)NCC(=O)N[C@@H](CCC(N)=O)C(=O)N[C@@H](Cc1c[nH]cn1)C(=O)N[C@@H](CCC(N)=O)C(=O)N[C@@H](CC(=O)O)C(=O)NCC(=O)N[C@@H](CC(N)=O)C(=O)N[C@@H](Cc1ccccc1)C(=O)N[C@@H](Cc1ccc(O)cc1)C(=O)N[C@@H](CC(=O)O)C(=O)N[C@@H](Cc1c[nH]c2ccccc12)C(=O)N[C@@H](Cc1ccccc1)C(=O)N[C@H](C(=O)N[C@@H](CCC(=O)O)C(=O)N[C@@H](C)C(=O)N[C@@H](CC(C)C)C(=O)N[C@@H](C)C(=O)N[C@@H](CCCCN)C(=O)N[C@@H](CCCCNC(=O)CCCC[C@@H]1SC[C@@H]2NC(=O)N[C@@H]21)C(N)=O)C(C)C [Clone D101]	Kd ([1]; read-out: Kd (µM) HIR): 0.51 µM
1.4 µM	CC(C)C[C@H](NC(=O)[C@H](C)NC(=O)[C@H](CO)NC(=O)[C@H](CCC(=O)O)NC(=O)[C@H](Cc1ccccc1)NC(=O)[C@H](Cc1c[nH]c2ccccc12)NC(=O)[C@H](CCC(=O)O)NC(=O)[C@H](Cc1ccc(O)cc1)NC(=O)[C@H](Cc1ccccc1)NC(=O)[C@@H](NC(=O)CNC(=O)CNC(=O)CNC(=O)[C@H](CCCNC(=N)N)NC(=O)[C@@H](N)CCCCN)[C@@H](C)O)C(=O)N[C@@H](CCCNC(=N)N)C(=O)N[C@@H](CCCCN)C(=O)N[C@@H](Cc1c[nH]cn1)C(=O)NCC(=O)N[C@@H](C)C(=O)NCC(=O)N[C@@H](CCCCN)C(=O)N[C@@H](CCCCNC(=O)CCCC[C@@H]1SC[C@@H]2NC(=O)N[C@@H]21)C(N)=O [Clone D110]	–
